The target in the test is T1, hSSTR2 (Homo sapiens, UniProt P30874).
T1 construct: host or cells: 'Cells expressing hSSTR2'
In words: Intracellular calcium mobilization assay (FLIPR Calcium 4), hSSTR2.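 Also: agonist activity measured in cells expressing hSSTR2, seeded in 384-well plates, loaded with Calcium 4 dye, read-out as rise in intracellular calcium.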 The test is classed as cell-based. The note with it: Table IV; cells expressing hSSTR2; read-out: hSSTR2 EC50 (nM) ± SEM.

Protein sequences, listed by entry. Tags and fused reporters are not part of them. Lines headed by an entry give the natural chain unless they say otherwise; changes in a name come on top.
UniProt P30874: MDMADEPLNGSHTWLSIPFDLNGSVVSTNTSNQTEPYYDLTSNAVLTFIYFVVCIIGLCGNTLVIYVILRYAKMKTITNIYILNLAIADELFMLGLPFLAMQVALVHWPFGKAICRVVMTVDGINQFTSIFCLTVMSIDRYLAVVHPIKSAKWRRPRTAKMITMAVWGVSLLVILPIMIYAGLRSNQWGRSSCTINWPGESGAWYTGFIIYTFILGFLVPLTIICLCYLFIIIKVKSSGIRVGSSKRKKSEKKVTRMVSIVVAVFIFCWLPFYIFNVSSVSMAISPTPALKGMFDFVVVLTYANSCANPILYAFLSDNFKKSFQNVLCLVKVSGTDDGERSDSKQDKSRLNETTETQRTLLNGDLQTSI

A word on the EC50: it is the concentration needed to bring the measured effect to its halfway point. Regarding “Dop1-cyclo(DLys-Arg-Phe-Phe-DTrp-Lys-Thr-Phe) [Compound 44]”, the EC50 was 39.3 ± 16.7 nM.

(Values after patent EP2914280B1, “SOMATOSTATIN-DOPAMINE CHIMERIC ANALOGS” (IPSEN PHARMA S.A.S., priority 2012, dated 2014).)
